Biological target: Acetylcholinesterase (Electrophorus electricus, UniProt O42275)
Experiment: Reversible mixed-type inhibition of electric eel acetylcholinesterase using acetylcholine bromide as substrate assessed as free enzyme-inhibitor complex by Lineweaver-Burk plot analysis

The chains behind the UniProt entries cited, without tags or fusion partners. Where a name states a change or a piece, a line headed by the entry shows the natural chain unless it says otherwise.
UniProt O42275: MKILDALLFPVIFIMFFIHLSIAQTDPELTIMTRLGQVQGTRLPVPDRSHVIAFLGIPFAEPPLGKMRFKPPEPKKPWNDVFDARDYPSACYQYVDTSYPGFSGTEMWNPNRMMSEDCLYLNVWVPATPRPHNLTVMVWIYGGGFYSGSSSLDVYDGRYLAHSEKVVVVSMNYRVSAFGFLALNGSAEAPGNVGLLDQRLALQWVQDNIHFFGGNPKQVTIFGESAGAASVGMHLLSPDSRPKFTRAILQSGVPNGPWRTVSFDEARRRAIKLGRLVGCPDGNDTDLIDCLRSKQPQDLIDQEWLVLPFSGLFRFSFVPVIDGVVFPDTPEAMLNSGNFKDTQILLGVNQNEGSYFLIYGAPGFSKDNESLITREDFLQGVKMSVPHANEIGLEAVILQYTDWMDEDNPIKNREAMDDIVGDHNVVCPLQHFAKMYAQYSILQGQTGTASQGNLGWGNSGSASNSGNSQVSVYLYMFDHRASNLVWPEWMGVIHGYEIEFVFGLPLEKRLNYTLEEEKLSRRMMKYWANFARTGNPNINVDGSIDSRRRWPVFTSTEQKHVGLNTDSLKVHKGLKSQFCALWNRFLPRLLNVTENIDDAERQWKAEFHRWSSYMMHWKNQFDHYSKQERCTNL

Work on `CNC(=O)Oc1ccc2c(c1)[C@]1(C)CCN(C)[C@@H]1N2C` [PHYSOSTIGMINE SALICYLATE] yielded a Ki of 0.21 µM.

Source: ChEMBL document CHEMBL3272245, “Potent reversible anticholinesterase agents. Bis- and mono-N-substituted benzoquinolinium halides” (J Med Chem, 1977)
